Laboratory results reported in ChEMBL document CHEMBL2346538, “Synthesis, cyclooxygenase inhibitory effects, and molecular modeling study of 4-aryl-5-(4-(methylsulfonyl)phenyl)-2-alkylthio and -2-alkylsulfonyl-1H-imidazole derivatives” (Bioorg Med Chem, 2013).

Sequences of proteins named here, by UniProt entry; tags and fusion partners are left off.
UniProt P23219, whole entry: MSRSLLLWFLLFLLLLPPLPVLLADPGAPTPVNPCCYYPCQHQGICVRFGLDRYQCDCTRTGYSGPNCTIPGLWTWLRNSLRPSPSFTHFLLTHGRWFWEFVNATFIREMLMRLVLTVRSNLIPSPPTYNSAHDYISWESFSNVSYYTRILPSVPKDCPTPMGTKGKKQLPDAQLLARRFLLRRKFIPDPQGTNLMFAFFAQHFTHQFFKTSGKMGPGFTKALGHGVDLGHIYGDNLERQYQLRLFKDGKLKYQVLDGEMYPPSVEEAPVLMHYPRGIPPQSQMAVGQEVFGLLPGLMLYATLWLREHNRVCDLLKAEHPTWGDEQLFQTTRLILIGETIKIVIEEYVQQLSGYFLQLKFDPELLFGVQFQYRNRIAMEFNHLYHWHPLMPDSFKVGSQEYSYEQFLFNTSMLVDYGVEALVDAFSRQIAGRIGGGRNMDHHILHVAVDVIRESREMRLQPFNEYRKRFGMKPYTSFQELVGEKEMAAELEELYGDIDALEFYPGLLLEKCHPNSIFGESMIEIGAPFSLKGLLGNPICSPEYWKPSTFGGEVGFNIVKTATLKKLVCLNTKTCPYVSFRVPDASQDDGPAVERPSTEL

Tests used:
[1] = target: Prostaglandin G/H synthase 1 (Homo sapiens, UniProt P23219)
Homo sapiens = species: Homo sapiens; assay: Selectivity index, ratio of IC50 for COX1 in human blood to IC50 for COX2 in human blood

IC50 [1] [nM]	Ratio IC50 (Homo sapiens)	SMILES
420	–	CS(=O)(=O)c1ccc(-c2[nH]c(S(C)(=O)=O)nc2-c2ccc(Cl)cc2)cc1
320	–	CSc1nc(-c2ccc(Cl)cc2)c(-c2ccc(S(C)(=O)=O)cc2)[nH]1
390	–	CS(=O)(=O)c1ccc(-c2[nH]c(S(C)(=O)=O)nc2-c2ccc(F)cc2)cc1
170	–	CCSc1nc(-c2ccccc2)c(-c2ccc(S(C)(=O)=O)cc2)[nH]1
240	–	CCSc1nc(-c2ccc(F)cc2)c(-c2ccc(S(C)(=O)=O)cc2)[nH]1
400	–	CCS(=O)(=O)c1nc(-c2ccc(F)cc2)c(-c2ccc(S(C)(=O)=O)cc2)[nH]1
440	–	CCS(=O)(=O)c1nc(-c2ccc(Cl)cc2)c(-c2ccc(S(C)(=O)=O)cc2)[nH]1

Continued, compound first:

SMILES	IC50 [1] [nM]	Ratio IC50 (Homo sapiens)
CCS(=O)(=O)c1nc(-c2ccccc2)c(-c2ccc(S(C)(=O)=O)cc2)[nH]1	360	–
CSc1nc(-c2ccc(F)cc2)c(-c2ccc(S(C)(=O)=O)cc2)[nH]1	210	3.07
CSc1nc(-c2ccccc2)c(-c2ccc(S(C)(=O)=O)cc2)[nH]1	160	–
CS(=O)(=O)c1ccc(-c2[nH]c(S(C)(=O)=O)nc2-c2ccccc2)cc1	340	–
CCSc1nc(-c2ccc(Cl)cc2)c(-c2ccc(S(C)(=O)=O)cc2)[nH]1	390	3.39
